Earlier results in patent US20230143984A1, “COLLOIDAL CARRIER SYSTEMS FOR TRANSFER OF AGENTS TO A DESIRED SITE OF ACTION” (Heidelberg University, priority 2020, published 2023).

Tested on: long-term potentiation (LTP) in brain slices
Settings: applied to brain slices in vitro; Richter et al., 2018

Sequence: DAEFRHDSGYEVHHQK (human APPs alpha fragment; listed as Homo sapiens) [CTα16]
- effect on long-term potentiation / synaptic plasticity: same effects in terms of long-term potentiation as the complete protein APPsα; also recorded: enhances synaptic plasticity

Entries after “also recorded” stand apart in the source; their conditions may differ.
